{
  "source": "patent US8221566B1",
  "origin": "cited, not measured here",
  "key": {"[1]": {"system": "Saccharomyces diastaticus", "conditions": "aqueous, in 5 min; cited from earlier work"}, "water lines": {"system": "water lines", "conditions": "aqueous; cited from earlier work"}},
  "note": "Only a part of the results on these compounds is given; other tests are left out.",
  "data": [
    {"substance": "hydrogen fluoride", "values": [
      {"measurement": "Concentration of aq. HF that destroys the organism", "setting": "[1]", "value": 200, "unit": "ppm"},
      {"measurement": "Concentration of aq. HF that sterilizes water lines", "setting": "water lines", "value": "1-100 ppm"}
    ]}
  ]
}
